The list shows a part of the results, in another mix than the full data. Active and inactive are the calls of the source.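 Rule for the calls: active = viability at or below 30% in both replicate assays; inconclusive = viability at or below 30% in just one of the two assays; inactive = the rest.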
Assay: HUVEC growth inhibition – cell-based, human, primary screen (AID 575);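 note: 100% = median of untreated cell wells with 0.1% DMSO on each plate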
Details: HUVEC proliferation, CellTiter-Glo luminescence, 72 h; at 10 µM; stronger effect = lower value
How it was run: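 Timing: 72 h treatment at 37 °C; material: HUVEC primary cells; technique: CellTiter-Glo luminescence measuring cellular ATP; controls: vehicle and MePR control wells; measure: percent of median DMSO-control luminescence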

SMILES	viability
CN(C)CCOC(=O)C(O)(c1ccccc1)C1CCCCC1 (stereo not given)	inactive: 112%
CP(=O)(Nc1ccc2c(c1)OCCO2)Oc1ccccc1 (stereo not given)	inactive: 87.3%
CP(=O)(Nc1ccccn1)Oc1ccccc1 (stereo not given)	inactive: 97%
CP(=S)(Nn1cnnc1)Oc1ccccc1 (stereo not given)	inactive: 110%
Cc1ccc(C)c(NP(C)(=O)Oc2ccccc2)c1 (stereo not given)	inactive: 106%

Source: PubChem BioAssay AID575 (SRMLSC, 2007)
